Test results published in patent US10709119B2, “Methods of agent delivery into eggs and embryos of egg-producing aquatic animals for drug screening, agent toxicity assay and production of infertile fish” (University of Maryland Baltimore County, priority 2015, dated 2020).

Test system: zebrafish eggs
Assay: Incubation of zebrafish eggs with poly-arginine, bright field microscopy (aggregates, chorion lysis)
Type: in vivo
Conditions: after 18 hours incubation
Protocol: 40 zebrafish eggs were transferred into each well of 48-well plates that contained 300 μl of fresh tank system water. After the allocation of eggs, system water in each well was replaced with 300 μl of water that contained 10 or 100 μM of poly-arginine (9-arginine polymer). After 18 hours of incubation the eggs were examined using an Axioplan 2 fluorescence microscope (ZEISS, Thornwood, N.Y., USA). The microscope is equipped with a DP70 digital camera (Olympus, Center Valley, Pa., USA).

chorion lysis (10 μM): not seen
chorion lysis (100 μM): caused chorion lysis
Compound: N=C(N)NCCC[C@H](NC(=O)[C@H](CCCNC(=N)N)NC(=O)[C@H](CCCNC(=N)N)NC(=O)[C@H](CCCNC(=N)N)NC(=O)[C@H](CCCNC(=N)N)NC(=O)[C@H](CCCNC(=N)N)NC(=O)[C@H](CCCNC(=N)N)NC(=O)[C@H](CCCNC(=N)N)NC(=O)[C@@H](N)CCCNC(=N)N)C(=O)O [poly-arginine/9 mer]
